Reference: patent US10258614B2, “Compositions and methods for treating schizophrenia” (priority 2014, dated 2019)

Chains of the proteins cited; added tags and fusions are not shown. Lines headed by an entry give the natural chain unless they say otherwise; changes in a name come on top.
UniProt Q12809: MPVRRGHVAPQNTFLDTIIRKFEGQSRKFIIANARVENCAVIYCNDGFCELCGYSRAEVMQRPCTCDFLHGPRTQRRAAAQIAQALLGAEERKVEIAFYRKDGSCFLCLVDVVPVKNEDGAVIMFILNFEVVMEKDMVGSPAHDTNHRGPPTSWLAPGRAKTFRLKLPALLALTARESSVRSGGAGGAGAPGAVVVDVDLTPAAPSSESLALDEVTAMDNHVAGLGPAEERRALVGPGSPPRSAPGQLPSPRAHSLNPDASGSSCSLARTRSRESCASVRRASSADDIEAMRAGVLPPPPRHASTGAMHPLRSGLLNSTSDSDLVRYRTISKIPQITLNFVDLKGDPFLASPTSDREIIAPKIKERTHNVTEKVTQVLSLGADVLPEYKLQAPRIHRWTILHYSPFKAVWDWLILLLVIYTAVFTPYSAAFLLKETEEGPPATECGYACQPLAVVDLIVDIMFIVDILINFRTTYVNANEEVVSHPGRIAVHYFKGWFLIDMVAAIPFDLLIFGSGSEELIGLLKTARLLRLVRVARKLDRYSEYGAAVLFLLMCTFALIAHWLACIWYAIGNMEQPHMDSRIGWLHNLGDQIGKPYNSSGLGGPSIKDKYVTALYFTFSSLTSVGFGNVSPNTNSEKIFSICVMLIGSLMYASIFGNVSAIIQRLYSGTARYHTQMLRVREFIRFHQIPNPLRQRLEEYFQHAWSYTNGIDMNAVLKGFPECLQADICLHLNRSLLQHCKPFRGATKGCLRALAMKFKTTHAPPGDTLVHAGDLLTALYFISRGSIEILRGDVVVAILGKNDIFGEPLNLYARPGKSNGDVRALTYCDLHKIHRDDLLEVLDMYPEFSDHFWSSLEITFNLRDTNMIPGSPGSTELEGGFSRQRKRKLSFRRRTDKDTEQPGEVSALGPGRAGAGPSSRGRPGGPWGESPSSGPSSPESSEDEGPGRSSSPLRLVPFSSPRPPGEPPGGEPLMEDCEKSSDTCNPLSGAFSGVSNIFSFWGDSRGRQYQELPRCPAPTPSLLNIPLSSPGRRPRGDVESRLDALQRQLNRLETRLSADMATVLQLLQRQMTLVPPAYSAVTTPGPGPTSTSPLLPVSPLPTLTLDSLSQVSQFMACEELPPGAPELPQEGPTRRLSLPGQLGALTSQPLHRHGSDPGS

Molecular target: IKr current (Homo sapiens, UniProt Q12809)
Assay: In vitro electrophysiology, cultured cells expressing cloned cardiac ion channels
From the text: The effects of Compound (I) on the cardiovascular system were examined in in vitro and in vivo studies.

`O=C1Cc2cc(CCN3CCN(c4nsc5ccccc45)CC3)c(Cl)cc2N1` [ziprasidone, reference compound] gave an IC50 of 0.134 µM.
